{
  "source": "patent US20050192261A1",
  "about": "“Methods and reagents for the treatment of immunoinflammatory disorders” (priority 2003, published 2005)",
  "tested_on": "TNFα secretion in white blood cells from human buffy coat stimulated with phorbol 12-myristate 13-acetate and ionomycin",
  "experiment": "TNFα secretion assay",
  "conditions": "cetrizine HCl r5-r13: 0,0.2,0.4,0.8,1.6,3.2,6.4,13,26 μM",
  "note": "Where “and” joins values, the source holds several entries; their conditions need not be identical. Equal values may be shown once.",
  "data": [
    {"smiles": "Cl.Cl.O=C(O)COCCN1CCN(C(c2ccccc2)c2ccc(Cl)cc2)CC1", "note": "(centres unmarked) [Cetrizine HCl]", "values": [
      {"measurement": "inhibition of TNFα secretion", "setting": "prednisolone 0.5 μM", "value": "42 and 45 and 46 and 40 and 39 and 41"},
      {"measurement": "inhibition of TNFα secretion", "setting": "prednisolone 1 μM", "value": 47}
    ]}
  ]
}
